Source: patent publication US4599325A, “Substituted tyrosyl alanine dipeptide amides” (G. D. Searle & Co., priority 1985, dated 1986)
pIC50: −log10 of the molar value.

Target: opiate receptors
Assay: Opiate binding assay (displacement of 3H-Naloxone)
Settings: Table 1, rat brain membranes
Method: The test compounds were evaluated for their ability to displace the binding of ^3 H-Naloxone to opiate receptors isolate from rat brain. Male rats [COBS CD(SD)BR] obtained from Charles River Laboratories (Portage, MI) were sacrificed by cervical dislocation. A purified homogenate of receptor membranes was prepared from the brains according to the method described by Chang and Cuatrecasas. (K.-J. Chang and P. Cuatrecases. Multiple Opiate Receptors: Enkephalins And Morphine Bind To Receptors Of Different Specificity. J. Biol. Chem. 254, 2610-2618 (1979).) The brains were homogenized in 10 volumes of 0.32M sucrose and centrifuged twice at 6,000×g for 15 minutes. Following centrifugation of the supernatants at 40,000×g for 30 minutes, the pellets were allowed to swell, then centrifuged at 6,000 and 40,000×g. This process was repeated. […]
The binding of the test compounds to the receptor membrane preparation was measured using a modification of the method of Pert and Snyder. […]
Samples were incubated at 25° C. for 60 min., cooled on ice 5 min. and subsequently filtered over Whatman GF/C glass fiber filters with 2.4 ml washes of cold buffer. […] After solubilization, the pH was adjusted with 0.1 ml of glacial acetic acid, 10 ml of PCS was added and the samples were counted in a Nuclear Chicago Mark II liquid scintillation counter. […]

Substance: 2,6-dimethyltyrosyl-N-(4-phenylbutyl)-D-alaninamide, hydrochloride [Example 43]
- pIC50: 6.89
